The target of assay [1] is Acetylcholinesterase (Homo sapiens) (UniProt P22303). Put plainly: Bimolecular rate constant (kn) for reaction of the anionic (oximate) with 7.5 x 10 e-4 M acetylthiocholine (AcSCh) in 0.1 M phosphate buffer.
For assay [2] the target is unchanged. Put plainly: Reactivation of para-nitrophenyl methylphosphate (EPMP)-phosphonylated human erythrocyte AChE at pH 7.6.
Assay [3] has the same target. Put plainly: Reactivation of para-nitrophenyl methylyphosphate (EPMP)-phosphonylated human erythrocyte AChE.
Assay [4] shares this target. The assay is described as follows: Maximum reactivation for GD-inhibited human erythrocyte (RBC) AChE by oximes.
The target is the same in assay [5]. Put plainly: Compound was evaluated for reactivation of para-nitrophenyl methylphosphate (EPMP)-phosphonylated human erythrocyte AChE.
Assay [6] has the same target. The assay is described as follows: Compound was evaluated for reactivation of EPMP-Phosphorylated human AChE.
Assay [7] has the same target. The assay is described as follows: Maximum reactivation for GD-inhibited human erythrocyte (RBC) AChE by oximes; No reactivation.
For assay [8] the target is unchanged. The assay is described as follows: Compound was evaluated for reactivation of EPMP-Phosphorylated human AChE of bimolecular rate constants reactivation in the limit of low concentration of oximate.

Amino acid sequences for entries named in this document (tags omitted). A change or cut given only in a name is not applied to a line headed by its entry.
UniProt P22303: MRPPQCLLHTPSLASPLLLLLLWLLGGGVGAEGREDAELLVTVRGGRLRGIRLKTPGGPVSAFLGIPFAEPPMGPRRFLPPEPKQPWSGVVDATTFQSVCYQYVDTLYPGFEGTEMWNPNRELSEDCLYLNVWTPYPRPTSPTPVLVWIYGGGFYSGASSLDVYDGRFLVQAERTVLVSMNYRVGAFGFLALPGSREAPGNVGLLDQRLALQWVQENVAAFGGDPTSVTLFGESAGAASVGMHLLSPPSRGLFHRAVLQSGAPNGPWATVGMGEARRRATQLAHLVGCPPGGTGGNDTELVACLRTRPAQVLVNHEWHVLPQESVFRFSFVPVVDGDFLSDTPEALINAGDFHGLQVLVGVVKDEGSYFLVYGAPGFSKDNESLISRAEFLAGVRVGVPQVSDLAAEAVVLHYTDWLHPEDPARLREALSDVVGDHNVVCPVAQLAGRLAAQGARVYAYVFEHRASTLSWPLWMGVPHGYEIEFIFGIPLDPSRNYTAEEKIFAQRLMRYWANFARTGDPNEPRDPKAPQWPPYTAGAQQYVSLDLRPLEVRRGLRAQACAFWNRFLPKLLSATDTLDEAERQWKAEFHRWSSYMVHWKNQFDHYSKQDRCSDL

Each structure is given as a SMILES string.

With `C[N+](C)(C)CCS/C(=N\O)C(=O)c1ccc(Br)cc1`, in assay [1], the kn amounted to 0.332 M⁻¹ s⁻¹. For the same molecule, the kHOX in assay [2] turned out to be 0.863 M⁻¹ s⁻¹. The molecule also showed a kOX in assay [3] of 1.3 M⁻¹ s⁻¹. In addition, the Rmax in assay [4] amounted to 51.8%.

Molecule `CN(C)CCS/C(=N\O)C(=O)c1ccc(Br)cc1` displayed a kn in assay [1] of 0.42 M⁻¹ s⁻¹. The Rmax in assay [4] amounted to 14.6%.

On to `CN(C)CCCS/C(=N\O)C(=O)c1ccc(Br)cc1`, for which the kn in assay [1] came to 0.777 M⁻¹ s⁻¹. The molecule also registered an Rmax in assay [4] of 4.6%.

Consider `CC(C)N(CCS/C(=N\O)C(=O)c1ccc(Cl)cc1)C(C)C`, for which the kn in assay [1] is 0.205 M⁻¹ s⁻¹. The kHOX in assay [2] turned out to be 0.813 M⁻¹ s⁻¹. In assay [3], this molecule had a kOX of 1.14 M⁻¹ s⁻¹.

As to `Cc1ccc(C(=O)/C(=N/O)SCCN(C)C)cc1`, the kn in assay [1] is 0.295 M⁻¹ s⁻¹. This molecule returned a kHOX in assay [2] of 0.638 M⁻¹ s⁻¹. The kOX in assay [3] is 1.56 M⁻¹ s⁻¹.

On to `CC[N+](C)(CC)CCS/C(=N\O)C(=O)c1ccc(F)cc1`, for which the kn in assay [1] came to 0.256 M⁻¹ s⁻¹. Moreover, the kHOX in assay [2] came to 2.77 M⁻¹ s⁻¹. This molecule showed a kOX in assay [3] of 4.19 M⁻¹ s⁻¹.

As to `CC[N+](C)(CC)CCS/C(=N\O)C(=O)c1ccc(OC)cc1`, the kn in assay [1] was determined as 0.993 M⁻¹ s⁻¹. In addition, the kHOX in assay [2] amounted to 0.54 M⁻¹ s⁻¹. The same molecule yielded a kOX in assay [3] of 1.22 M⁻¹ s⁻¹. This molecule also had an Rmax in assay [4] of 8.5%.

As to `C[N+](C)(C)CCS/C(=N\O)C(=O)c1ccc(F)cc1`, the kn in assay [1] came out at 0.263 M⁻¹ s⁻¹. Moreover, the kHOX in assay [2] amounted to 0.952 M⁻¹ s⁻¹. In addition, the kOX in assay [3] came out at 2.23 M⁻¹ s⁻¹.

Consider `Cc1ccc(C(=O)/C(=N/O)SCC[N+](C)(C)C)cc1`, for which, in assay [1], the kn was determined as 0.387 M⁻¹ s⁻¹. Also, the kHOX in assay [2] was 0.683 M⁻¹ s⁻¹. Further, the kOX in assay [3] stood at 1.32 M⁻¹ s⁻¹.

`CCN(CC)CCS/C(=N\O)C(=O)c1ccc(Br)cc1` returned a kOX in assay [5] of 1.2 M⁻¹ s⁻¹. Also, the kn in assay [1] stood at 0.205 M⁻¹ s⁻¹. In assay [2], this molecule returned a kHOX of 0.978 M⁻¹ s⁻¹. In assay [4], the Rmax is 35%.

Consider `CCN(CC)CCS/C(=N\O)C(=O)c1ccc(Cl)cc1`, for which the kn in assay [1] amounted to 0.253 M⁻¹ s⁻¹. The kHOX in assay [2] came to 0.75 M⁻¹ s⁻¹. In assay [3], this molecule gave a kOX of 1.25 M⁻¹ s⁻¹. The Rmax in assay [4] was determined as 28.6.

Turning to `CCN(CC)CCS/C(=N\O)C(=O)c1ccccc1`, the kn in assay [1] came to 0.105 M⁻¹ s⁻¹. In assay [4], this molecule registered an Rmax of 2.2%.

In assay [6], `CCN(CC)CCS/C(=N\O)C(=O)c1ccc(OC)cc1` showed a kOX of 1.28 M⁻¹ s⁻¹. In addition, the kn in assay [1] is 1.25 M⁻¹ s⁻¹. In addition, the kHOX in assay [2] came out at 0.605 M⁻¹ s⁻¹. The Rmax result in assay [7] was “No reactivation”.

Take `CC[N+](C)(CC)CCS/C(=N\O)C(=O)c1ccc(Cl)cc1`: the kn in assay [1] came to 0.253 M⁻¹ s⁻¹. This molecule registered a kHOX in assay [2] of 2.47 M⁻¹ s⁻¹. In assay [3], the kOX was 3.38 M⁻¹ s⁻¹. The molecule further returned an Rmax in assay [4] of 59.4%.

In turn, `CN(C)CCS/C(=N\O)C(=O)c1ccc(Cl)cc1` yielded a kn in assay [1] of 0.158 M⁻¹ s⁻¹. Besides, the kHOX in assay [2] worked out at 0.647 M⁻¹ s⁻¹. Moreover, the kOX in assay [3] amounted to 1.26 M⁻¹ s⁻¹. The molecule further had an Rmax in assay [4] of 8%.

As for `CCN(CC)CCS/C(=N\O)C(=O)c1ccc(C#N)cc1`, the kn in assay [1] came out at 0.0738 M⁻¹ s⁻¹. This molecule had a kHOX in assay [2] of 0.763 M⁻¹ s⁻¹. This molecule yielded a kOX in assay [3] of 0.963 M⁻¹ s⁻¹.

On to `C[n+]1ccccc1C=NO`, for which, in assay [1], the kn worked out at 0.84 M⁻¹ s⁻¹. The same molecule had a kHOX in assay [2] of 11.9 M⁻¹ s⁻¹. Moreover, the kOX in assay [3] is 41.3 M⁻¹ s⁻¹. Also, the Rmax in assay [4] amounted to 28.2%.

In assay [1], `COc1ccc(C(=O)/C(=N/O)SCC[N+](C)(C)C)cc1` had a kn of 0.877 M⁻¹ s⁻¹. In assay [2], the kHOX was determined as 0.39 M⁻¹ s⁻¹. The molecule also yielded a kOX in assay [3] of 0.895 M⁻¹ s⁻¹. Moreover, the Rmax in assay [4] is 5.6%.

In assay [1], `CC[N+](C)(CC)CCS/C(=N\O)C(=O)c1ccc(C#N)cc1` yielded a kn of 0.073 M⁻¹ s⁻¹. For the same molecule, in assay [2], the kHOX was found to be 1.39 M⁻¹ s⁻¹. The molecule also came in with a kOX in assay [3] of 1.57 M⁻¹ s⁻¹.

With `COc1ccc(C(=O)/C(=N/O)SCCN(C)C)cc1`, the kn in assay [1] amounted to 1.16 M⁻¹ s⁻¹. The kHOX in assay [2] worked out at 0.198 M⁻¹ s⁻¹. Besides, in assay [7], the Rmax entry was “No reactivation”. The molecule also yielded a kOX in assay [8] of 0.595 M⁻¹ s⁻¹.

Molecule `C[N+](C)(C)CCS/C(=N\O)C(=O)c1ccc(Cl)cc1` gave a kn in assay [1] of 0.155 M⁻¹ s⁻¹.
